The list shows a part of the results, in another mix than the full data. Activity calls are given as the source filed them.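 Rule for the calls: active = percent activation above the mean of all tested compounds plus 3 SD (cut at about 19% in these data); inactive = the rest.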
Target: cAMP-dependent protein kinase type I-alpha regulatory subunit (Bos taurus) + cAMP-dependent protein kinase catalytic subunit beta (Mus musculus) (UniProt P00514+P68181)
Assay: activators of PKA-R1A holoenzyme, primary screen, biochemical, fluorescence polarization, Cy5-IP20, bovine R1A, mouse PKAc (AID 504707);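 note: higher means more PKAc released from R1A so a rise in polarization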
Settings: PKA-R1A dissociation, at 11.4 µM, active compounds read high, scaled: DMSO 0%, 113 µM cGMP 100%

`COc1ccc(OP(C)(=O)Nc2ccc(Br)cc2)cc1` (stereo unspecified) was tested. Which activation did it give?
Its activation is inactive: -0.52%.

With `CN(C)C(=O)c1c([N+](=O)[O-])cc([N+](=O)[O-])cc1[N+](=O)[O-]` as the molecule, how does the activation read?
Its activation is inactive: -14%.

For `CP(=O)(Nc1ccc(Cl)cc1)Oc1ccc(F)cc1` (stereo unspecified), which activation is on record?
Its activation is inactive: -4.46%.

With `CC(C)(C)c1ccc(OP(C)(=O)O)cc1` as the molecule, how does the activation read?
The activation was inactive: -5.36%.

Which activation does the source give for `COc1ccccc1OP(C)(=O)Nc1ccccc1Br` (stereo unspecified) here?
Its activation is inactive: -3.31%.

`CCc1ccc(OP(C)(=O)N2CCN(c3ccc([N+](=O)[O-])cc3)CC2)cc1` (stereo unspecified) was tested. Which activation did it give?
Its activation is inactive: -4.51%.

For `CP(=O)(NC(=O)Nc1ccccc1)Oc1ccccc1` (stereo unspecified), which activation is on record?
Its activation is inactive: -10.2%.

Which activation does the source give for `Cc1cc(C)cc(OP(C)(=O)Nc2ccc(SC(F)(F)F)cc2)c1` (stereo unspecified) here?
The activation was inactive: -19.1%.

`Cc1ccc(Nc2c([N+](=O)[O-])cc([N+](=O)[O-])cc2[N+](=O)[O-])cc1` was tested. Which activation did it give?
The activation was inactive: -7.17%.

`Cc1cccc(C)c1OP(C)(=O)Nc1ccc(SC(F)(F)F)cc1` (stereo unspecified) was tested. Which activation did it give?
The activation was inactive: -1.88%.

`CP(=O)(Oc1ccccc1)OC(c1ccccc1)C(F)(F)F` (stereo unspecified) was tested. Which activation did it give?
Its activation is inactive: -7.69%.

How did the activation turn out when `CP(=O)(Nc1ccccn1)Oc1ccc(Cl)cc1` (stereo unspecified) was run?
Its activation is inactive: 8.44%.

Which activation does the source give for `CCOP(C)(=S)SCC(=O)NC(C)C(=O)O` (stereo unspecified) here?
Its activation is inactive: 4.91%.

With `CCOC(=O)c1ccc(NP(C)(=O)Oc2ccc(OC)cc2)cc1` (stereo unspecified) as the molecule, how does the activation read?
Its activation is inactive: 11.2%.

`COc1ccccc1OP(C)(=O)Nc1ccccc1` (stereo unspecified) was tested. Which activation did it give?
Its activation is inactive: -4.71%.

How did the activation turn out when `CP(=O)(Nc1ccccc1Br)Oc1ccccc1` (stereo unspecified) was run?
Its activation is inactive: 2.43%.

`CP(=S)(Nn1cnnc1)Oc1ccccc1` (stereo unspecified) was tested. Which activation did it give?
The activation was inactive: -8.7%.

`CC(C)(C)c1ccc(OP(C)(=O)Nc2ccc(SC(F)(F)F)cc2)cc1` (stereo unspecified) was tested. Which activation did it give?
Its activation is inactive: 9.18%.

Which activation does the source give for `Cc1cccc(C)c1OP(C)(N)=O` (stereo unspecified) here?
Its activation is inactive: 5.54%.

How did the activation turn out when `O=[N+]([O-])c1ccc2c(c1)C=Nc1ccccc1O2` was run?
Its activation is inactive: -7.34%.

With `O=[N+]([O-])c1cc([N+](=O)[O-])c(Nc2cccnc2)c([N+](=O)[O-])c1` as the molecule, how does the activation read?
Its activation is inactive: 4.75%.

Which activation does the source give for `COc1ccccc1OP(C)(=O)Nc1cc(Cl)ccc1C` (stereo unspecified) here?
The activation was inactive: 13.6%.

`COc1ccc(OP(C)(=O)Nc2cccc(F)c2)cc1` (stereo unspecified) was tested. Which activation did it give?
Its activation is inactive: 0.96%.

For `Cc1cc(C)cc(OP(C)(N)=O)c1` (stereo unspecified), which activation is on record?
Its activation is inactive: 2.81%.

With `CCOC(=O)c1ccc(NP(C)(=O)Oc2ccccc2)cc1` (stereo unspecified) as the molecule, how does the activation read?
Its activation is inactive: -6.95%.

`COc1ccccc1OP(C)(=O)Nc1ccc(C)cc1` (stereo unspecified) was tested. Which activation did it give?
Its activation is inactive: 2.89%.

With `Cc1ccc(NP(C)(=O)Oc2ccccc2)c(C)c1` (stereo unspecified) as the molecule, how does the activation read?
The activation was inactive: 6.49%.

How did the activation turn out when `CCN(CC)CCCOC(=O)C(O)(c1ccccc1)c1ccccc1` was run?
Its activation is inactive: -8.77%.

Which activation does the source give for `Cc1cc(C)cc(OP(C)(=O)Nc2ccc(C)cc2C)c1` (stereo unspecified) here?
The activation was inactive: 7.98%.

For `CCOC(=O)c1ccc(NP(C)(=O)Oc2cc(C)cc(C)c2)cc1` (stereo unspecified), which activation is on record?
The activation was inactive: 5.52%.

How did the activation turn out when `COc1ccccc1OP(C)(=O)Nc1cccc(Br)c1` (stereo unspecified) was run?
Its activation is inactive: -5.23%.

With `CP(=O)(Nc1cccc(Br)c1)Oc1ccccc1` (stereo unspecified) as the molecule, how does the activation read?
Its activation is inactive: -3.87%.

With `Cc1cc(C)cc(OP(C)(=O)Nc2ccccn2)c1` (stereo unspecified) as the molecule, how does the activation read?
The activation was inactive: -0.09%.

How did the activation turn out when `Cc1ccc(C)c(NP(C)(=O)Oc2ccccc2)c1` (stereo unspecified) was run?
Its activation is inactive: -9.88%.

How did the activation turn out when `O=C(O)c1cccc(Nc2c([N+](=O)[O-])cc([N+](=O)[O-])cc2[N+](=O)[O-])c1` was run?
Its activation is inactive: -1.03%.

With `CC1=NCCc2c1[nH]c1ccccc21.O=[N+]([O-])c1cc([N+](=O)[O-])c(O)c([N+](=O)[O-])c1` as the molecule, how does the activation read?
Its activation is inactive: -10.2%.

How did the activation turn out when `O=[N+]([O-])c1cc([N+](=O)[O-])c(Nc2nnnn2CCO)c([N+](=O)[O-])c1` was run?
Its activation is inactive: -0.83%.

`CC1=C2N=C(C=C3N=C(C(C)=C4[N-][C@@](C)([C@@H]5N=C1[C@](C)(CCC(=O)NC[C@@H](C)OP(=O)([O-])O[C@H]1[C@@H](O)[C@@H](n6cnc7cc(C)c(C)cc76)O[C@@H]1CO)[C@H]5CC(N)=O)[C@@](C)(CC(N)=O)[C@@H]4CCC(N)=O)[C@@](C)(CC(N)=O)[C@@H]3CCC(N)=O)C(C)(C)[C@@H]2CCC(N)=O.[C-]#N.[Co+3]` was tested. Which activation did it give?
Its activation is inactive: -8.79%.

`CCOC(=O)C(CC)C1=NC(C)(C)Cc2ccccc21.O=[N+]([O-])c1cc([N+](=O)[O-])c(O)c([N+](=O)[O-])c1` (stereo unspecified) was tested. Which activation did it give?
The activation was inactive: 0.72%.

How did the activation turn out when `CP(=O)(Nc1ccc(SC(F)(F)F)cc1)Oc1ccccc1` (stereo unspecified) was run?
Its activation is inactive: 13.5%.

`CCCOc1ccc(NP(C)(=O)Oc2ccc(Cl)cc2)cc1` (stereo unspecified) was tested. Which activation did it give?
Its activation is inactive: -0.42%.

For `COc1ccccc1OP(C)(=O)Nc1c(C)cccc1C` (stereo unspecified), which activation is on record?
Its activation is inactive: 6.78%.

With `CN1CCCCC1COC(=O)C1(O)c2ccccc2CCc2ccccc21` (stereo unspecified) as the molecule, how does the activation read?
The activation was inactive: 1.02%.

For `O=[N+]([O-])c1cc([N+](=O)[O-])c(-n2nnc3ccccc32)c([N+](=O)[O-])c1`, which activation is on record?
Its activation is inactive: 6.41%.

`Cc1nc2ccc3ccccc3c2s1.O=[N+]([O-])c1cc([N+](=O)[O-])c(O)c([N+](=O)[O-])c1` was tested. Which activation did it give?
The activation was inactive: 4.68%.

How did the activation turn out when `O=[N+]([O-])c1cc([N+](=O)[O-])c(-c2cnn(-c3ccccc3)c2)c([N+](=O)[O-])c1` was run?
The activation was inactive: 4.42%.

— PubChem BioAssay AID504707 (The Scripps Research Institute Molecular Screening Center, 2011)
